## Measured melting point values of organic chemicals

Source: data files of OPERA 2.9 (Mansouri et al.), github.com/kmansouri/OPERA.

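The numbers are reported measurements, compiled and curated for the OPERA QSAR suite. The files give a single number for a compound and property, which may rest on several reports. How each value was measured is not recorded, so precision varies. Where a salt, mixture or single isomer is drawn, the source does not say that exactly this form was tested. Some upstream entries may be estimates or bounds without being marked so.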

The melting point is given in degrees Celsius.
The databases behind each value are named after "via".

- CC(C)(C)OC(=O)N1CCN(CCN)CC1: mp 35 °C (via OCHEM)
- CCOc1cccc(C(N)=S)c1: mp 119 °C (via OCHEM)
- CN(C)CC(=N)NO: mp 136 °C (via OCHEM)
- O=C(O)c1cc(S(=O)(=O)N2CCOCC2)ccc1O: mp 235 °C (via OCHEM)
- CC(=O)Nc1cccc(N)c1C: mp 143 °C (via OCHEM)
- O=C(O)Cc1cc2c(cc1Br)OCCO2: mp 221 °C (via OCHEM)
- Cc1c(C(=O)O)[nH]c2c1C(=O)CC(C)(C)C2: mp 207 °C (via OCHEM)
- CCOC(=O)c1oc2c(Cl)cccc2c1C: mp 64 °C (via OCHEM)
- O=C(O)Cc1cccc2cccnc12: mp 131 °C (via OCHEM)
- COCCn1cn[nH]c1=S: mp 80 °C (via OCHEM)
- CCCCOc1cc(C=O)ccc1OC: mp 40 °C (via OCHEM)
- C=C(C)C(=O)OCCCCCCCCCCCCCCCC: mp 16 °C (via eChemPortal)
- Cc1cc(C)c2[nH]c(=O)cc(C)c2c1: mp 262 °C (via OCHEM)
- CC(C)(C)c1ccc(C(=O)CC#N)cc1: mp 79 °C (via OCHEM)
- COc1ccc(-n2c(C)c(C)c3c(N)ncnc32)cc1: mp 232 °C (via OCHEM)
- Clc1ccc(-n2cccn2)nn1: mp 143 °C (via OCHEM)
- CCCCC/C=C\CCC(=O)O: mp 4.5 °C (via PubChem)
- COCC(Br)C(=O)NCc1ccccc1 (stereo not given): mp 74 °C (via eChemPortal)
- CCOc1ccc(N)cc1Cl: mp 64 °C (via OCHEM)
- Nc1n[nH]c(-c2ccc(F)cc2)n1: mp 225 °C (via OCHEM)
- O=C(Cc1ccccc1)Nc1ccccc1C(=O)O: mp 193 °C (via OCHEM)
- S=c1[nH]nc(COc2ccccc2Cl)o1: mp 136 °C (via OCHEM)
- O=C(O)CCc1nc(=O)c2ccccc2[nH]1: mp 240 °C (via OCHEM)
- Fc1ccc(Nc2n[nH]c(=S)s2)cc1: mp 186 °C (via OCHEM)
- NC(=O)NCCCC(=O)O: mp 172 °C (via OCHEM)
- COc1ccc(S(=O)(=O)Cl)cc1C: mp 52 °C (via OCHEM)
- COCc1ccc(C(=O)O)o1: mp 64 °C (via OCHEM)
- CC1(C)C[C@H]2[C@H]1CC[C@]1(C)CCC[C@@]2(O)C1: mp 95 °C (via PubChem)
- O=C(c1ccccc1O)N1CCCCC1: mp 134 °C (via OCHEM)
- Cc1ccc(N2C(=O)C=CC2=O)cc1: mp 152 °C (via OCHEM)
- COc1ccccc1-n1cn[nH]c1=S: mp 205 °C (via OCHEM)
- NS(=O)(=O)N1CCNCC1: mp 165 °C (via OCHEM)
- Nc1cc(C(F)(F)F)ccc1NCc1ccccc1: mp 72.5 °C (via OCHEM)

Excerpt, the opening 5 entries:

{"smiles": "CC(C)(C)OC(=O)N1CCN(CCN)CC1", "mp (°C)": "35", "via": "OCHEM"}
{"smiles": "CCOc1cccc(C(N)=S)c1", "mp (°C)": "119", "via": "OCHEM"}
{"smiles": "CN(C)CC(=N)NO", "mp (°C)": "136", "via": "OCHEM"}
{"smiles": "O=C(O)c1cc(S(=O)(=O)N2CCOCC2)ccc1O", "mp (°C)": "235", "via": "OCHEM"}
{"smiles": "CC(=O)Nc1cccc(N)c1C", "mp (°C)": "143", "via": "OCHEM"}